Legend:
[1] = target: TSPO in human U87MG cells (Homo sapiens, UniProt P30536); experiment: [3H]PK11195 displacement binding, human U87MG cell membranes; details: lipE = pKi – logD
[2] = target: human cerebellum TSPO, LAB genotype (Homo sapiens, UniProt P30536); experiment: [3H]PK11195 binding assay, human cerebellum homogenates, LAB genotype
[3] = target: human cerebellum TSPO, HAB genotype (Homo sapiens, UniProt P30536); experiment: [3H]PK11195 binding assay, human cerebellum homogenates, HAB genotype
TSPO in rat kidney = TSPO in rat kidney (Rattus norvegicus, UniProt P16257); experiment: [3H]PK11195 displacement binding, rat kidney membranes; details: lipE = pKi – logD

Chains of the proteins cited; added tags and fusions are not shown. Residues count along the entry.
UniProt P30536, whole entry: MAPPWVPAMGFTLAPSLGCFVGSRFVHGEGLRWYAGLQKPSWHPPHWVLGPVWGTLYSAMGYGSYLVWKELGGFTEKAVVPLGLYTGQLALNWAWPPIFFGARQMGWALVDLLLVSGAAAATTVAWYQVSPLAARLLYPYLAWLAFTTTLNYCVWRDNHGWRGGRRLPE
UniProt P30536, 2-169: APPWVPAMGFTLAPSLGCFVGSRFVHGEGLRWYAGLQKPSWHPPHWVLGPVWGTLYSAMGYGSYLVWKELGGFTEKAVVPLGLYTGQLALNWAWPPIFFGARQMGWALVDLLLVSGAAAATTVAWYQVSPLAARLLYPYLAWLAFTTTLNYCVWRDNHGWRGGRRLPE

`CCC(C)N(C)C(=O)c1cc2ccccc2c(-c2ccccc2Cl)n1` (stereo not shown) [PK11195, reference compound] was tested, and the “lipE human U87MG” value [1] was 4.57, the Ki [2] was 17.8 ± 20.9 nM and the Ki [3] was 26.1 ± 18.5 nM. For the same compound, the lipE rat kidney (TSPO in rat kidney) was 4.50.

Source: PMC8817670 (Journal of medicinal chemistry, 2021)
